Measured values: ChEMBL document CHEMBL1138430, “Novel tetrahydroisoquinolines are histamine H3 antagonists and serotonin reuptake inhibitors” (Bioorg Med Chem Lett, 2007)

The chains behind the UniProt entries cited, without tags or fusion partners. Where a name states a change or a piece, a line headed by the entry shows the natural chain unless it says otherwise.
UniProt Q9Y5N1: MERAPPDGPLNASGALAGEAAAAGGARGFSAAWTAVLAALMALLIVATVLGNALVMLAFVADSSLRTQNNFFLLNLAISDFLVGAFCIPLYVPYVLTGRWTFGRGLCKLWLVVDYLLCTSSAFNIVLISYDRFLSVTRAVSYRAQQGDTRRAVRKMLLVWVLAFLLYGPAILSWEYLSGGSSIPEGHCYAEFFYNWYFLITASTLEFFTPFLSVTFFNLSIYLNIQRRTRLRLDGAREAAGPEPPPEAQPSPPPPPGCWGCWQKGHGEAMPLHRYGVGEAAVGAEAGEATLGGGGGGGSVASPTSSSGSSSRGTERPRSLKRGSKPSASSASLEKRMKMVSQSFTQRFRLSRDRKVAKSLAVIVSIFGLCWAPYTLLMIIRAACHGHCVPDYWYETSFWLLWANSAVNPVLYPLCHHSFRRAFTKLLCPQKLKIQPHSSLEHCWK

What follows are molecules tested against T1, Histamine H3 receptor (Homo sapiens, UniProt Q9Y5N1) (assay: Binding affinity at human histamine H3 receptor). Details: not given.

SMILES | Ki [nM]
COc1ccc(C2CN(C)Cc3cc(OCCCN4CCC(F)CC4)ccc32)cc1 (racemic) | 4
COc1ccc(C2CN(C)Cc3cc(OCCCN4CCC(F)CC4)ccc32)cc1 (single isomer, unassigned; (-)) | 3.8

Each molecule was assayed against T1, Histamine H3 receptor (assay: Antagonist activity at human histamine H3 receptor). Details: read-out: pA2 (converted).
Format: functional

SMILES | Kb [nM]
CN1Cc2cc(OCCCN3CCC(F)CC3)ccc2C(c2ccc(S(C)(=O)=O)cc2)C1 (stereo unspecified) | 0.525
COc1ccc(C2CN(C)Cc3cc(OCCCN4CCC(F)CC4)ccc32)cc1 (racemic) | 1.29
COc1ccc(C2CN(C)Cc3cc(OCCCN4CCC(F)CC4)ccc32)cc1 (single isomer, unassigned; (-)) | 3.63
COc1ccc(C2CN(C)Cc3cc(OCCCN4CCC(F)CC4)ccc32)cc1 (stereo in doubt; 12b) | 2.63
